{
  "source": "paper PMC12147355",
  "about": "“Targeted destruction of follicle stimulating hormone receptor-positive cancer cells in vitro and in vivo by a lytic peptide Phor21-FSHβ conjugate” (Molecular Medicine, 2025)",
  "key": {"HEK293-FSHR cells": {"tested_on": "HEK293-FSHR cells", "assay": "CyQUANT cell proliferation assay, HEK293-FSHR cells", "assay_type": "cell-based, human", "details": "rhFSH 10, 100, or 1000 IU/L, 48 h; Fig. 1D", "experimental": "Cell proliferation was determined using a CyQUANT Cell Proliferation Assay (C7026, Life Technologies, Thermo Fisher Scientific). Prior to the experiments, HEK-293, HEK293-FSHR, and LNCaP cells were seeded in 96-well plates (7000 cells/well). After overnight incubation in the culture medium, the cells were starved for 4 h in basal non-supplemented DMEM/F12. The cells were then treated for 48 h with rhFSH (10, 100, or 1000 IU/L) or cetrorelix (CTX) (1, 5, 10, or 20 µM; Sigma-Aldrich), and 2.5% FSC was used as a positive control. After incubation, the medium was removed, and the plates with cells were frozen at −80 °C overnight. After thawing at room temperature (RT), 200 µl of CyQUANT GR dye/cell lysis buffer was added to each well and incubated for 5 min at room temperature (RT) in the dark. The fluorescence was read using a WALLAC Victor 2 1420 spectrophotometer (Perkin Elmer, Waltham, Massachusetts, USA) with ~ 480 nm excitation and ~ 520 nm emission maxima. The results were subtracted from a standard curve made from bacteriophage λ DNA (ranging from 50 pg/ml to 1.0 µg/ml) in CyQUANT GR/cell lysis buffer and are presented as absolute values."}, "FSHR": {"biological_target": "T1, FSHR (Homo sapiens, UniProt P23945)", "T1 construct": "expressed in transfected cells; Hanyaloglu", "T1 sequence (P23945 18-695)": "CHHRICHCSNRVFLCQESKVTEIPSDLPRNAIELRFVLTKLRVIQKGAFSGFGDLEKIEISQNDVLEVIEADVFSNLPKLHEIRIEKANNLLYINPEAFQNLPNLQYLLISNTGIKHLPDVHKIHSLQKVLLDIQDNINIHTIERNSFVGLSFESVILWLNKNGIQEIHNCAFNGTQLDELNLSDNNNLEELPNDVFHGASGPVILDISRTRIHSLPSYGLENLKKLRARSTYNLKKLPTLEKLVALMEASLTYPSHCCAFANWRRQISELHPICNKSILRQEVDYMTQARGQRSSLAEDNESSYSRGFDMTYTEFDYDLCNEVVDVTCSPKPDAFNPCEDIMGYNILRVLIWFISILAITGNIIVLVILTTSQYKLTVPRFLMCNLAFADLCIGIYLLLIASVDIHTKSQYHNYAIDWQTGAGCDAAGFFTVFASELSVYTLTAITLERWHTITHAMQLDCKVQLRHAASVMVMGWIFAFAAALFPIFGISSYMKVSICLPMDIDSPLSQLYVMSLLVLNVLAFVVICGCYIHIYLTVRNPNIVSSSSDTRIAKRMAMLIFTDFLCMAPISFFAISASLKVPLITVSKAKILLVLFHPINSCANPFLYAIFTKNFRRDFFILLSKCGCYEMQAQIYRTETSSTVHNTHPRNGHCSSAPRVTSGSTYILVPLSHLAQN", "assay": "rhFSH-stimulated cAMP production (CANDLES assay)", "assay_type": "cell-based", "details": "10, 100, or 1000 IU/L rhFSH, Fig. 1C", "experimental": "The kinetics of rhFSH-stimulated intracellular cAMP production in HEK293-FSHR and HEK-293 cells were determined via Cyclic AMP iNdirect detection via light emission from sensor cells (CANDLES) assay, as described previously (Trehan et al. [2014]). The cells were co-cultured with GS-293 sensor cells in 12-well plates in complete DMEM/F12 medium for 24 h. Prior to the experiment, complete DMEM was replaced with freshly prepared assay medium containing a 1:1 ratio of DMEM/F12 and CO2-independent medium supplemented with 0.1% BSA (Gibco, Thermo Fisher Scientific, Waltham, Massachusetts, USA), 2% GloSensor cAMP reagent (Promega), and 100 µM 3-isobutyl-1-methylxanthine (IBMX; Sigma). The cells were equilibrated for 45 min at RT in the dark at a constant temperature of 25 °C in a plate reader (Victor, Perkin-Elmer-Wallac), and luminescence was measured for 5 min to obtain a basal measurement. Luminescence from individual wells was measured for 5 s for up to 1 h.\nEndpoint extracellular cAMP production in PC-3, DU145, LNCaP, KGN, CaOV-3, OVCaR-3, MCF-7, HEK293-FSHR, and HEK-293 cells was determined according to the standard radioimmunoassay method using iodinated succinyl-cAMP (Harper and Brooker [1975]). The cells were seeded onto 24-well plates (80000 cells/well) and grown overnight in culture medium. […]"}},
  "data": [
    {"substance": "rhFSH: recombinant human follicle-stimulating hormone", "values": [
      {"measurement": "HEK293-FSHR cell growth (proliferation) under rhFSH stimulation", "setting": "HEK293-FSHR cells", "value": "did not promote"},
      {"measurement": "rhFSH-stimulated cAMP production in HEK293-FSHR cells", "setting": "FSHR", "value": "dose-dependent"}
    ]}
  ]
}
